For the test, the target named is T1, PAR1 S309P mutant (human, UniProt P25116 42-425).
T1 sequence (looked up): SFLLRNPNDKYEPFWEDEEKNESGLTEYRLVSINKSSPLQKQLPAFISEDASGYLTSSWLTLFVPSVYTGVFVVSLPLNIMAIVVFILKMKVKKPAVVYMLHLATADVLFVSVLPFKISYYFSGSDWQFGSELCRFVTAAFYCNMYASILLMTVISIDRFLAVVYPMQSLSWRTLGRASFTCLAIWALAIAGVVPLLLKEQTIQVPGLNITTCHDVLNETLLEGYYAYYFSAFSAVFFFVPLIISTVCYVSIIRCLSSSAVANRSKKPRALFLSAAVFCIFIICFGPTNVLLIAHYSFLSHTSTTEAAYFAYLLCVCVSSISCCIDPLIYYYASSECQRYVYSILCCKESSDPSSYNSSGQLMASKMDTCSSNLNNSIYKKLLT
The test is described as follows: cell-based or functional assay.

Substance thrombin (enzyme) came in with a loss of efficacy against wild type PAR1 (InsP) of 1.6 fold.

For the origin of these results see patent US7696168 (TUFTS MEDICAL CENTER, dated 2010).
